Test results reported in patent publication US10729778B2, “Carrier-linked treprostinil prodrugs” (Ascendis Pharma A/S, priority 2011, dated 2020).
Like-named read-outs stand apart in the source and are kept apart here.

Conditions: pH 7.4, 37° C.

Substance: TransCon PEG linker treprostinil [Compound 5]
- released treprostinil [%] (incubation time 0.000 d): 2%
- released treprostinil [%] (incubation time 0.83 d): 5%
- released treprostinil [%] (incubation time 1.11 d): 18%
- released treprostinil [%] (incubation time 1.81 d): 27%
- released treprostinil [%] (incubation time 2.06 d): 29%
- released treprostinil [%] (incubation time 5.13 d): 59%
- released treprostinil [%] (incubation time 6.10 d): 64%
- released treprostinil [%] (incubation time 8.80 d): 77%
- released treprostinil [%] (incubation time 11.90 d): 86%
